{
  "source": "patent US7893252B2",
  "about": "“Selectively depolymerized galactomannan polysaccharide” (priority 2003, dated 2011)",
  "test_system": "rats",
  "assay": "Repeat dose I.V. rat study with GMP grade galactomannan (Example 8)",
  "type": "in vivo",
  "description": "Studies with repeat dose I.V. in rats with up to 52-day recovery period was performed using filtered GMP grade galactomannan material containing 48 or 96 mg/kg (288 or 576 mg/m2). Five animals of each sex were sacrificed at days 5, 28 and 56.\nThe galactomannan of the invention has minimal histological effects with only 1/30 rats injected with 48 mg/kg dose of the GMP galactomannan clinical solution having granulomatous inflammation. […] It was concluded that galactomannan clinical solutions, up to a dose of 15 mg/kg (555 mg/m2; 9 mg/mL), is safe for human use and poses no undue risk to health.",
  "data": [
    {"substance": "(((1,4)-linked β-D-mannopyranose)17-((1,6)-linked-β-D-galactopyranose)10)12) [GM]", "values": [
      {"measurement": "histologic findings in the lung, sacrifice at day 5", "setting": "96 mg/kg IV for four consecutive days", "value": "low incidence of trace-level granulomatous inflammation of the lung"},
      {"measurement": "histologic findings in the lungs, sacrifice on day 28", "setting": "male rats, 96 mg/kg", "value": "increased incidence of trace-level interstitial inflammation in the lungs"},
      {"measurement": "histologic findings in the lungs, sacrifice on day 56", "setting": "male rats, 96 mg/kg", "value": "increased incidence of trace-level alveolar macrophage accumulation"}
    ]}
  ]
}
